The values that follow are results of earlier work, collected in US8545903B2 (priority 2009, dated 2013).

For this series the following is noted: in vivo; cited from earlier work.

SMILES strings stand for the structures.

For `CC(=O)N[C@H]1[C@H]([C@H](O)[C@H](O)CO)OC(C(=O)O)=C[C@@H]1N=C(N)N` [Zanamivir], the bioavailability entry was “low bioavailability”.
